In patent US20250312469A1 (CANGET BIOTEKPHARMA, priority 2024, published 2025):
Where two headings read alike, the source gives them in different places. Marks after values point to notes of the source that are not given here.

Tests used:
[1] = Group 4, 4/4 mg/kg/dose; for MCH % Diff / GLB (globulin), % Diff versus vehicle Group 1: female dogs; for GLB (globulin) % Diff vs Group 1: male dogs
[2] = female rats
[3] = Group 2, 3 mg/kg/wk oral, Day 15
[4] = Group 2, 3 mg/kg/wk oral, Day 15, vs vehicle Group 1
[5] = Group 3, 3.75/2.5 mg/kg/wk oral, Day 15, vs vehicle Group 1

With CCC1(O)C(=O)OCc2c1cc1n(c2=O)Cc2cc3cc4c(cc3nc2-1)OCO4 (centres unmarked) [FL118] the Caco-2 cell permeability (Caco-2 cells (P-gp); 1 μM, +/−1 μM valspodar) was “not affected by the Pgp inhibitor Valspodar”, the “Absorption Potential Classification” value (Caco-2 cells (P-gp); Caco-2) was “High (Papp (A-to-B)≥1.0×10^−6 cm/s: High)” and the “P-gp Substrate Classification” value (Caco-2 cells (P-gp); Caco-2, without and with 1 μM valspodar) was “Negative (ER≥2.0 without valspodar, and reduced by <50% with valspodar: Negative)”. For the same compound, the “MCH % Diff” value ([1]; Day −4) was 0.1%, the “GLB (globulin), % Diff versus vehicle Group 1” value ([1]; Day 15) was 9.3% and the “MCH % Diff” value ([1]; Day 15) was −1.8%. For the same compound, the “GLB (globulin), % Diff versus vehicle Group 1” value ([1]; Day −4 (pre-dose)) was 9.0%, the “GLB (globulin) % Diff vs Group 1” value ([1]; Day 15) was −24.1% and the “GLB (globulin) % Diff vs Group 1” value ([1]; Day −4) was −12.4%. The “#BASO, basophils, absolute, Mean” value [2, 3] was 0.01 10^3/μL, the “#EOS, eosinophils, absolute, Mean” value [2, 3] was 0.06 10^3/μL and the “#LYMP, lymphocytes, absolute, Mean” value [2, 3] was 5.86 10^3/μL. For the same compound, the “#MONO, monocytes, absolute, Mean” value [2, 3] was 0.13 10^3/μL, the “#NEUT, neutrophils, absolute, Mean” value [2, 3] was 0.57 10^3/μL and the “% BASO, basophils, percent, Mean” value [2, 3] was 0.2%. For the same compound, the “% EOS, eosinophils, percent, Mean” value [2, 3] was 1.1%, the “% LYMP, lymphocytes, percent, Mean” value [2, 3] was 87.1% and the “% MONO, monocytes, percent, Mean” value [2, 3] was 1.9%. The “% NEUT, neutrophils, percent, Mean” value [2, 3] was 9.1%, the “% RET, reticulocytes, percent, Mean” value [2, 3] was 4.27% and the “ALB, albumin, Mean” value [2, 3] was 35.7 g/L. For the same compound, the “ALP, alkaline phosphatase, Mean” value [2, 3] was 101 U/L, the “ALT, alanine aminotransferase, Mean” value [2, 3] was 32 U/L and the “AST, aspartate aminotransferase, Mean” value [2, 3] was 137 U/L. For the same compound, the “BIL-T, total bilirubin, Mean” value [2, 3] was 1.96 µmol/L, the “CK, creatine kinase, Mean” value [2, 3] was 537 U/L and the “CRE, creatinine, Mean” value [2, 3] was 24 µmol/L. For the same compound, the “Ca, calcium, Mean” value [2, 3] was 2.41 mmol/L, the “GLB, globulin, Mean” value [2, 3] was 22.7 g/L and the “HCT, hematocrit, Mean” value [2, 3] was 40.4%. For the same compound, the “HGB, hemoglobin, Mean” value [2, 3] was 13.5 g/dL, the “K, potassium, Mean” value [2, 3] was 4.5 mmol/L and the “MCH, mean corpuscular hemoglobin, Mean” value [2, 3] was 18.6 pg. The “MCHC, mean corpuscular hemoglobin concentration, Mean” value [2, 3] was 33.4 g/dL, the “MCV, mean corpuscular volume, Mean” value [2, 3] was 55.8 fL and the “Na, sodium, Mean” value [2, 3] was 142 mmol/L. For the same compound, the “P, inorganic phosphorus, Mean” value [2, 3] was 2.16 mmol/L, the “PLT, platelet count, Mean” value [2, 3] was 1310 10^3/μL and the “RBC, red blood cell, Mean” value [2, 3] was 7.25 10^6/μL. For the same compound, the “RDW, RBC distribution width, Mean” value [2, 3] was 12.5* %, the “TCHO, total cholesterol, Mean” value [2, 3] was 1.54 mmol/L and the “TG, triglyceride, Mean” value [2, 3] was 0.24 mmol/L. The “TP, total protein, Mean” value [2, 3] was 58.4 g/L, the “UREA, urea, Mean” value [2, 3] was 7.24 mmol/L and the “WBC, white blood cell, Mean” value [2, 3] was 6.67 10^3/μL. For the same compound, the “sGLU, glucose, Mean” value [2, 3] was 8.47 mmol/L, the “#BASO, basophils, absolute, % Diff” value [2, 4] was −16.67% and the “#EOS, eosinophils, absolute, % Diff” value [2, 4] was −11.76%. For the same compound, the “#LYMP, lymphocytes, absolute, % Diff” value [2, 4] was −9.52%, the “#MONO, monocytes, absolute, % Diff” value [2, 4] was −9.59% and the “#NEUT, neutrophils, absolute, % Diff” value [2, 4] was 1.42%. For the same compound, the “#RET, reticulocytes, absolute, % Diff” value [2, 4] was 70.3%, the “% BASO, basophils, percent, % Diff” value [2, 4] was 33.3% and the “% EOS, eosinophils, percent, % Diff” value [2, 4] was 12.5%. For the same compound, the “% LYMP, lymphocytes, percent, % Diff” value [2, 4] was −1.3%, the “% MONO, monocytes, percent, % Diff” value [2, 4] was −1.0% and the “% NEUT, neutrophils, percent, % Diff” value [2, 4] was 14.0%. For the same compound, the “% RET, reticulocytes, percent, % Diff” value [2, 4] was 74.92%, the “ALB, albumin, % Diff” value [2, 4] was −4.9% and the “ALP, alkaline phosphatase, % Diff” value [2, 4] was −3%. The “ALT, alanine aminotransferase, % Diff” value [2, 4] was −5%, the “AST, aspartate aminotransferase, % Diff” value [2, 4] was 27% and the “BIL-T, total bilirubin, % Diff” value [2, 4] was 13.44%. The “CK, creatine kinase, % Diff” value [2, 4] was 34%, the “CRE, creatinine, % Diff” value [2, 4] was 3% and the “Ca, calcium, % Diff” value [2, 4] was −2.12%. The “Cl, chloride, % Diff” value [2, 4] was 1%, the “GLB, globulin, % Diff” value [2, 4] was −4.2% and the “HCT, hematocrit, % Diff” value [2, 4] was −2.5%. The “HGB, hemoglobin, % Diff” value [2, 4] was −3.8%, the “K, potassium, % Diff” value [2, 4] was 0.0% and the “MCH, mean corpuscular hemoglobin, % Diff” value [2, 4] was −1.8%. For the same compound, the “MCHC, mean corpuscular hemoglobin concentration, % Diff” value [2, 4] was −1.2%, the “MCV, mean corpuscular volume, % Diff” value [2, 4] was −0.6% and the “MPV, mean platelet volume, % Diff” value [2, 4] was 1.5%. The “Na, sodium, % Diff” value [2, 4] was 0%, the “P, inorganic phosphorus, % Diff” value [2, 4] was 3.35% and the “PLT, platelet count, % Diff” value [2, 4] was 19%. For the same compound, the “RBC, red blood cell, % Diff” value [2, 4] was −1.92%, the “RDW, RBC distribution width, % Diff” value [2, 4] was 14.9% and the “TCHO, total cholesterol, % Diff” value [2, 4] was 1.99%. For the same compound, the “TG, triglyceride, % Diff” value [2, 4] was −6.15%, the “TP, total protein, % Diff” value [2, 4] was −4.7% and the “UREA, urea, % Diff” value [2, 4] was −10.39%. The “WBC, white blood cell, % Diff” value [2, 4] was −8.73%, the “sGLU, glucose, % Diff” value [2, 4] was −17.32% and the “#BASO, basophils, absolute, % Diff” value [2, 5] was −16.67%. The “#EOS, eosinophils, absolute, % Diff” value [2, 5] was 0.00%, the “#LYMP, lymphocytes, absolute, % Diff” value [2, 5] was −9.36% and the “#MONO, monocytes, absolute, % Diff” value [2, 5] was 16.44%. The “#NEUT, neutrophils, absolute, % Diff” value [2, 5] was 53.55%, the “#RET, reticulocytes, absolute, % Diff” value [2, 5] was 88.0% and the “% BASO, basophils, percent, % Diff” value [2, 5] was 50.0%. The “% EOS, eosinophils, percent, % Diff” value [2, 5] was 4.2%, the “% LYMP, lymphocytes, percent, % Diff” value [2, 5] was −5.5% and the “% MONO, monocytes, percent, % Diff” value [2, 5] was 22.4%. The “% NEUT, neutrophils, percent, % Diff” value [2, 5] was 51.0%, the “% RET, reticulocytes, percent, % Diff” value [2, 5] was 106.89% and the “ALB, albumin, % Diff” value [2, 5] was −0.2%. For the same compound, the “ALP, alkaline phosphatase, % Diff” value [2, 5] was −21%, the “ALT, alanine aminotransferase, % Diff” value [2, 5] was −4% and the “AST, aspartate aminotransferase, % Diff” value [2, 5] was −17%. The “BIL-T, total bilirubin, % Diff” value [2, 5] was −7.76%, the “CK, creatine kinase, % Diff” value [2, 5] was −39% and the “CRE, creatinine, % Diff” value [2, 5] was 0%. For the same compound, the “Ca, calcium, % Diff” value [2, 5] was −1.38%, the “Cl, chloride, % Diff” value [2, 5] was 1% and the “GLB, globulin, % Diff” value [2, 5] was −2.7%. For the same compound, the “HCT, hematocrit, % Diff” value [2, 5] was −3.9% and the “HGB, hemoglobin, % Diff” value [2, 5] was −5.7%.
